Source: US8999691B2 (priority 2010, dated 2015)

System: OC[C@H]1OC(O)[C@H](O)[C@@H](O)[C@@H]1O
Assay: purified protein, by the assay type
Conditions: other: glucose 1-40 mM, DCIP 0.3 mM/PMS 0.6 mM, pH 6.5, partially purified enzyme, 20.0 °C

Which Km does the source give for “Botryotinia fuckeliana glucose dehydrogenase (Bfu-GDH, FAD-GDH), wild type, SEQ ID NO:2 (Botrytis cinerea B05.10)” here?
The Km was 60.3 mM.
